SMILES strings stand for the structures. Structures can show the parent of a compound that is named as a salt.

The conditions of data set [1]: in words; cited from earlier work.
Data set [2] is described as follows: Solubility in water: water added by degrees until 0.1 g of compound fully dissolves. To be noted: 28° C.

With `O=C(O)C(O)C(O)C(=O)O.Oc1ccc2c(c1)[C@@]13CCCC[C@@]1(O)[C@@H](C2)N(CC1CCC1)CC3` [Butorphanol tartrate], in data set [1], the Solubility in alcohol entry is reported as “insoluble in alcohol” and the Solubility in water entry is reported as “sparingly soluble in water”. Turning to `COc1ccc2c(c1)[C@]13CCCC[C@@H]1[C@H](C2)N(C)CC3` [Dextromethorphan hydrobromide], the “Water quantity for dissolving 0.1 g solute” value in data set [2] was found to be 4 mL.

The record behind these values is patent US8557784B2, “Glycyrrhizinates of morphinan derivatives” (Standard Chem. & Pharm. Co., Ltd., priority 2011, dated 2013).
